# Assay results reported in patent US10160812B2, “Bispecific HER2 antibodies” (MedImmune, LLC, priority 2014, dated 2018).
# System: BT-474 cells
# Experiment: Confocal microscopy of internalization and lysosomal trafficking
# Type: cell-based, human
# Settings: 10 ug/mL
# Experimental: Confocal microscopy method was used to visualize antibody internalization and lysosomal trafficking. BT-474 cells were harvested from a T-150 flask and resuspended in ice-cold culture media and then added to a 96-well U-bottom plate at 2.5×10^5 cells/well. Cells were pelleted by centrifugation at 4° C. […] Cells were incubated at 37° C./5% CO2 for a different period of time (30 min, 2 hours, 4 hours, or 6 hours) and then cooled on ice immediately. Cells were washed twice with ice-cold FACS buffer and then fixed and permeabilized using BD Biosciences Cytofix/Cytoperm™ Fixation/Permeabilization Solution according to manufacturer's instructions. Cells were stained in the dark with anti-human IgG Alexa-Fluor 488, and mouse anti-human LAMP-1 (clone H4A3) followed by anti-mouse IgG Alexa-Fluor 647. After staining, cells were cytospun onto positive charge slides and coversliped with ProLong® Gold Antifade Reagent containing DAPI. Cells were then visualized by Leica SP5 Confocal Microscope and the Leica Application Suite Advanced Fluorescence software suite.
substance,measurement,value
trastuzumab: recombinant humanized version of the murine HER2 antibody 4D5 [reference compound],internalization and lysosomal trafficking,little to no internalization
